# Laboratory results reported in patent US20150368338A1 (Janssen / Centocor, published 2015).
# Target: T1, IFN-αB2 (human, UniProt P32881 24-189)
# T1 construct: Recombinant, HEK293; also called IFN-α8
# Assay: ProteOn SPR, cell supernatant;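 also: each binding measurement used just a single antigen concentration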
row,Kd [nM],Binder
1,0.022,"IFWM3379 (antibody, IgG1, V domains shown, mAb; IgG1/kappa said of the parent and of selected mAbs; also called IFWB3114) VH: EVQLVQSGAEVKKPGESLKISCKGSGYSFTSYWIGWVRQMPGKGLEWMGIIDPSDSDTRYSPSFQGQVTISADKSISTAYLQWSSLKASDTAMYYCARHPGLAWAPDFDYWGQGTLVTVSS VL: DIQMTQSPSSLSASVGDRVTITCRASQSIDGSLNWYQQKPGKAPKLLIYFASSLQSGVPSRFSGSGSGTDFTLTISSLQPEDFATYYCQQSYDFPLTFGQGTKVEIK"

# Target: T2, IFN-αB2 (human, UniProt P32881 24-189)
# T2 construct: also called IFN-α8; IFN alpha B2
# Assay: ProteOn, one antigen concentration
row,Kd [nM],Binder
1,0.095,"IFWM3329 (antibody, V domains shown, VH IFWH591, VL IFWL1067; converted mAb; also called IFWB3064) VH: EVQLVQSGAEVKKPGESLKISCKGSGYSFTSYWIGWVRQMPGKGLEWMGIIDPSDSDTRYSPSFQGQVTISADKSISTAYLQWSSLKASDTAMYYCARHPGLNWAPDFDYWGQGTLVTVSS VL: DIQMTQSPSSLSASVGDRVTITCRASQSIRNNNLNWYQQKPGKAPKLLIHWASSLQSGVPSRFSGSGSGTDFTLTISSLQPEDFATYYCQQGYDTPFTFGQGTKVEIK"
2,0.132,"IFWM3328 (antibody, V domains shown, VH IFWH591, VL IFWL1064; converted mAb; also called IFWB3063) VH: EVQLVQSGAEVKKPGESLKISCKGSGYSFTSYWIGWVRQMPGKGLEWMGIIDPSDSDTRYSPSFQGQVTISADKSISTAYLQWSSLKASDTAMYYCARHPGLNWAPDFDYWGQGTLVTVSS VL: DIQMTQSPSSLSASVGDRVTITCRASQSINNLNWYQQKPGKAPKLLIYWASSLQSGVPSRFSGSGSGTDFTLTISSLQPEDFATYYCQQGYDTPFTFGQGTKVEIK"
3,0.046,"IFWM3336 (antibody, V domains shown, VH IFWH591, VL IFWL1085; converted mAb; also called IFWB3071) VH: EVQLVQSGAEVKKPGESLKISCKGSGYSFTSYWIGWVRQMPGKGLEWMGIIDPSDSDTRYSPSFQGQVTISADKSISTAYLQWSSLKASDTAMYYCARHPGLNWAPDFDYWGQGTLVTVSS VL: DIQMTQSPSSLSASVGDRVTITCRASQSIRNNYLNWYQQKPGKAPKLLIYAASSLQSGVPSRFSGSGSGTDFTLTISSLQPEDFATYYCQQGYDTPLTFGQGTKVEIK"
4,0.111,"IFWM3335 (antibody, V domains shown, VH IFWH591, VL IFWL1084; converted mAb; also called IFWB3070) VH: EVQLVQSGAEVKKPGESLKISCKGSGYSFTSYWIGWVRQMPGKGLEWMGIIDPSDSDTRYSPSFQGQVTISADKSISTAYLQWSSLKASDTAMYYCARHPGLNWAPDFDYWGQGTLVTVSS VL: DIQMTQSPSSLSASVGDRVTITCRASQSINYLNWYQQKPGKAPKLLIYGASSLQSGVPSRFSGSGSGTDFTLTISSLQPEDFATYYCQQSHDWPITFGQGTKVEIK"
5,0.048,"IFWM3352 (antibody, V domains shown, VH IFWH624, VL IFWL1013; converted mAb; also called IFWB3087) VH: EVQLVQSGAEVKKPGESLKISCKGSGYSFTSYWIGWVRQMPGKGLEWMGIIDPSDSDTAYSPSFQGQVTISADKSISTAYLQWSSLKASDTAMYYCARHPGLNWAPDFDYWGQGTLVTVSS VL: DIQMTQSPSSLSASVGDRVTITCRASQSINNFLNWYQQKPGKAPKLLIYFASSLQSGVPSRFSGSGSGTDFTLTISSLQPEDFATYYCQQSFNLPITFGQGTKVEIK"
6,0.094,"IFWM3339 (antibody, V domains shown, VH IFWH591, VL IFWL1093; converted mAb; also called IFWB3074) VH: EVQLVQSGAEVKKPGESLKISCKGSGYSFTSYWIGWVRQMPGKGLEWMGIIDPSDSDTRYSPSFQGQVTISADKSISTAYLQWSSLKASDTAMYYCARHPGLNWAPDFDYWGQGTLVTVSS VL: DIQMTQSPSSLSASVGDRVTITCRASQSIANNDLNWYQQKPGKAPKLLIHWASSLQSGVPSRFSGSGSGTDFTLTISSLQPEDFATYYCQQDYDWPLTFGQGTKVEIK"
7,0.055,"IFWM3332 (antibody, V domains shown, VH IFWH591, VL IFWL1074; converted mAb; also called IFWB3067) VH: EVQLVQSGAEVKKPGESLKISCKGSGYSFTSYWIGWVRQMPGKGLEWMGIIDPSDSDTRYSPSFQGQVTISADKSISTAYLQWSSLKASDTAMYYCARHPGLNWAPDFDYWGQGTLVTVSS VL: DIQMTQSPSSLSASVGDRVTITCRASQSIANTNLNWYQQKPGKAPKLLIHWASSLQSGVPSRFSGSGSGTDFTLTISSLQPEDFATYYCQQWYDNPLTFGQGTKVEIK"
8,0.06,"IFWM3327 (antibody, V domains shown, VH IFWH591, VL IFWL1063; converted mAb; also called IFWB3062) VH: EVQLVQSGAEVKKPGESLKISCKGSGYSFTSYWIGWVRQMPGKGLEWMGIIDPSDSDTRYSPSFQGQVTISADKSISTAYLQWSSLKASDTAMYYCARHPGLNWAPDFDYWGQGTLVTVSS VL: DIQMTQSPSSLSASVGDRVTITCRASQSIANNNLNWYQQKPGKAPKLLIHWASSLQSGVPSRFSGSGSGTDFTLTISSLQPEDFATYYCQQGYDTPFTFGQGTKVEIK"
9,0.062,"IFWM3358 (antibody, V domains shown, VH IFWH624, VL IFWL1041; converted mAb; also called IFWB3093) VH: EVQLVQSGAEVKKPGESLKISCKGSGYSFTSYWIGWVRQMPGKGLEWMGIIDPSDSDTAYSPSFQGQVTISADKSISTAYLQWSSLKASDTAMYYCARHPGLNWAPDFDYWGQGTLVTVSS VL: DIQMTQSPSSLSASVGDRVTITCRASQSITGFLNWYQQKPGKAPKLLIYAASSLQSGVPSRFSGSGSGTDFTLTISSLQPEDFATYYCQQSHDFPLTFGQGTKVEIK"
10,0.137,"IFWM3333 (antibody, V domains shown, VH IFWH591, VL IFWL1076; converted mAb; also called IFWB3068) VH: EVQLVQSGAEVKKPGESLKISCKGSGYSFTSYWIGWVRQMPGKGLEWMGIIDPSDSDTRYSPSFQGQVTISADKSISTAYLQWSSLKASDTAMYYCARHPGLNWAPDFDYWGQGTLVTVSS VL: DIQMTQSPSSLSASVGDRVTITCRASQSIDNNNLNWYQQKPGKAPKLLIYAASSLQSGVPSRFSGSGSGTDFTLTISSLQPEDFATYYCQQGYDWPLTFGQGTKVEIK"
11,0.039,"IFWM3364 (antibody, V domains shown, VH IFWH624, VL IFWL1060; converted mAb; also called IFWB3099) VH: EVQLVQSGAEVKKPGESLKISCKGSGYSFTSYWIGWVRQMPGKGLEWMGIIDPSDSDTAYSPSFQGQVTISADKSISTAYLQWSSLKASDTAMYYCARHPGLNWAPDFDYWGQGTLVTVSS VL: DIQMTQSPSSLSASVGDRVTITCRASQSIRNSLNWYQQKPGKAPKLLIKWASSLQSGVPSRFSGSGSGTDFTLTISSLQPEDFATYYCQQLYDWPLTFGQGTKVEIK"
12,0.035,"IFWM3360 (antibody, V domains shown, VH IFWH624, VL IFWL1048; converted mAb; also called IFWB3095) VH: EVQLVQSGAEVKKPGESLKISCKGSGYSFTSYWIGWVRQMPGKGLEWMGIIDPSDSDTAYSPSFQGQVTISADKSISTAYLQWSSLKASDTAMYYCARHPGLNWAPDFDYWGQGTLVTVSS VL: DIQMTQSPSSLSASVGDRVTITCRASQSIDGALNWYQQKPGKAPKLLIYFASSLQSGVPSRFSGSGSGTDFTLTISSLQPEDFATYYCQQAYDFPLTFGQGTKVEIK"
13,0.01,"IFWM3351 (antibody, V domains shown, VH IFWH624, VL IFWL1010; converted mAb; also called IFWB3086) VH: EVQLVQSGAEVKKPGESLKISCKGSGYSFTSYWIGWVRQMPGKGLEWMGIIDPSDSDTAYSPSFQGQVTISADKSISTAYLQWSSLKASDTAMYYCARHPGLNWAPDFDYWGQGTLVTVSS VL: DIQMTQSPSSLSASVGDRVTITCRASQSIDGALNWYQQKPGKAPKLLIYFASSLQSGVPSRFSGSGSGTDFTLTISSLQPEDFATYYCQQSFDFPLTFGQGTKVEIK"
14,0.006,"IFWM3353 (antibody, V domains shown, VH IFWH624, VL IFWL1014; converted mAb; also called IFWB3088) VH: EVQLVQSGAEVKKPGESLKISCKGSGYSFTSYWIGWVRQMPGKGLEWMGIIDPSDSDTAYSPSFQGQVTISADKSISTAYLQWSSLKASDTAMYYCARHPGLNWAPDFDYWGQGTLVTVSS VL: DIQMTQSPSSLSASVGDRVTITCRASQSIDRALNWYQQKPGKAPKLLIYFASSLQSGVPSRFSGSGSGTDFTLTISSLQPEDFATYYCQQSFDFPLTFGQGTKVEIK"
15,0.021,"IFWM3331 (antibody, V domains shown, VH IFWH591, VL IFWL1073; converted mAb; also called IFWB3066) VH: EVQLVQSGAEVKKPGESLKISCKGSGYSFTSYWIGWVRQMPGKGLEWMGIIDPSDSDTRYSPSFQGQVTISADKSISTAYLQWSSLKASDTAMYYCARHPGLNWAPDFDYWGQGTLVTVSS VL: DIQMTQSPSSLSASVGDRVTITCRASQSIDNSYLNWYQQKPGKAPKLLIYGASSLQSGVPSRFSGSGSGTDFTLTISSLQPEDFATYYCQQGWDWPLTFGQGTKVEIK"
16,0.108,"IFWM3338 (antibody, V domains shown, VH IFWH591, VL IFWL1091; converted mAb; also called IFWB3073) VH: EVQLVQSGAEVKKPGESLKISCKGSGYSFTSYWIGWVRQMPGKGLEWMGIIDPSDSDTRYSPSFQGQVTISADKSISTAYLQWSSLKASDTAMYYCARHPGLNWAPDFDYWGQGTLVTVSS VL: DIQMTQSPSSLSASVGDRVTITCRASQSIRNTNLNWYQQKPGKAPKLLIHWASSLQSGVPSRFSGSGSGTDFTLTISSLQPEDFATYYCQQGYDTPFTFGQGTKVEIK"
17,0.436,"IFWM3334 (antibody, V domains shown, VH IFWH591, VL IFWL1082; converted mAb; also called IFWB3069) VH: EVQLVQSGAEVKKPGESLKISCKGSGYSFTSYWIGWVRQMPGKGLEWMGIIDPSDSDTRYSPSFQGQVTISADKSISTAYLQWSSLKASDTAMYYCARHPGLNWAPDFDYWGQGTLVTVSS VL: DIQMTQSPSSLSASVGDRVTITCRASQSIRNNSLNWYQQKPGKAPKLLIYAASSLQSGVPSRFSGSGSGTDFTLTISSLQPEDFATYYCQQDYNWPLTFGQGTKVEIK"
18,0.023,"IFWM3354 (antibody, V domains shown, VH IFWH624, VL IFWL1017; converted mAb; also called IFWB3089) VH: EVQLVQSGAEVKKPGESLKISCKGSGYSFTSYWIGWVRQMPGKGLEWMGIIDPSDSDTAYSPSFQGQVTISADKSISTAYLQWSSLKASDTAMYYCARHPGLNWAPDFDYWGQGTLVTVSS VL: DIQMTQSPSSLSASVGDRVTITCRASQSITSSLNWYQQKPGKAPKLLIYFASSLQSGVPSRFSGSGSGTDFTLTISSLQPEDFATYYCQQSFDLPLTFGQGTKVEIK"
19,0.022,"IFWM3337 (antibody, V domains shown, VH IFWH591, VL IFWL1087; converted mAb; also called IFWB3072) VH: EVQLVQSGAEVKKPGESLKISCKGSGYSFTSYWIGWVRQMPGKGLEWMGIIDPSDSDTRYSPSFQGQVTISADKSISTAYLQWSSLKASDTAMYYCARHPGLNWAPDFDYWGQGTLVTVSS VL: DIQMTQSPSSLSASVGDRVTITCRASQSISNSNLNWYQQKPGKAPKLLIHWASSLQSGVPSRFSGSGSGTDFTLTISSLQPEDFATYYCQQWYDHPLTFGQGTKVEIK"
20,0.048,"IFWM3361 (antibody, V domains shown, VH IFWH624, VL IFWL1051; converted mAb; also called IFWB3096) VH: EVQLVQSGAEVKKPGESLKISCKGSGYSFTSYWIGWVRQMPGKGLEWMGIIDPSDSDTAYSPSFQGQVTISADKSISTAYLQWSSLKASDTAMYYCARHPGLNWAPDFDYWGQGTLVTVSS VL: DIQMTQSPSSLSASVGDRVTITCRASQSIADFLNWYQQKPGKAPKLLIYFASSLQSGVPSRFSGSGSGTDFTLTISSLQPEDFATYYCQQSHSFPLTFGQGTKVEIK"
21,0.008,"IFWM3357 (antibody, V domains shown, VH IFWH624, VL IFWL1038; converted mAb; also called IFWB3092) VH: EVQLVQSGAEVKKPGESLKISCKGSGYSFTSYWIGWVRQMPGKGLEWMGIIDPSDSDTAYSPSFQGQVTISADKSISTAYLQWSSLKASDTAMYYCARHPGLNWAPDFDYWGQGTLVTVSS VL: DIQMTQSPSSLSASVGDRVTITCRASQSISEYLNWYQQKPGKAPKLLIYFASSLQSGVPSRFSGSGSGTDFTLTISSLQPEDFATYYCQQSHSLPITFGQGTKVEIK"
